Source: ChEMBL document CHEMBL1124172 (J Med Chem, 1988)
Converted amounts (≈) assume the structure as drawn. “And” between values parts separate entries of the source, which are not always exact repeats. Identical values can stand only once.

How the values were obtained:
[1] = system: Mus musculus; assay: In vivo antitumor activity against P388 Lymphocytic Leukemia measured as Survivors on day 5 at 23 mg/kg; 6/6
[2] = system: Mus musculus; assay: In vivo antitumor activity against P388 Lymphocytic Leukemia measured as Survivors on day 5 at 11.5 mg/kg; 6/6
[3] = system: Mus musculus; assay: In vivo antitumor activity against P388 Lymphocytic Leukemia in mice at 46 mg/kg expressed as T/C value
[4] = system: Mus musculus; assay: In vivo antitumor activity against P388 Lymphocytic Leukemia measured as Survivors on day 5 at 92 mg/kg; 6/6
[5] = system: Mus musculus; assay: In vivo antitumor activity against P388 Lymphocytic Leukemia in mice at 11.5 mg/kg expressed as T/C value
[6] = system: Mus musculus; assay: In vivo antitumor activity against P388 Lymphocytic Leukemia in mice at 23 mg/kg expressed as T/C value
[7] = system: Mus musculus; assay: In vivo antitumor activity against P388 Lymphocytic Leukemia measured as Survivors on day 5 at 46 mg/kg; 5/6
[8] = system: Mus musculus; assay: In vivo antitumor activity against P388 Lymphocytic Leukemia in mice at 92 mg/kg expressed as T/C value
[9] = system: A204; assay: In vitro cytotoxicity against human A204 Rhabdomyosarcoma cell line; format: functional, cell-based
In short: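 A204 human rhabdomyosarcoma soft-agarose colony assay. 10^4 trypsin/EDTA-dissociated cells in 0.3% agarose over a 0.5% agarose base, in DMEM with 10% FCS, at 37 °C and 5% CO2. Compound was applied in an upper medium layer on day 1 for 24 h, then washed out. Colonies >60 µm were counted after 7–9 days by tetrazolium stain and image analysis. Quadruplicates with vehicle controls, at least four concentrations up to 100 or 1000 µg/mL. IC50 from a monoexponential least-squares fit over at least three preparations, mean ± SE.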

[10] = system: Mus musculus; assay: In vivo antitumor activity against P388 Lymphocytic Leukemia measured as Survivors on day 5 at 200 mg/kg, w.r.t. compound 6; 6/6
[11] = system: Mus musculus; assay: In vivo antitumor activity against P388 Lymphocytic Leukemia measured as Survivors on day 5 at 150 mg/kg; 6/6
[12] = system: Mus musculus; assay: In vivo antitumor activity against P388 Lymphocytic Leukemia measured as Survivors on day 5 at 1600 mg/kg, w.r.t. compound 6; 5/6
[13] = system: Mus musculus; assay: In vivo antitumor activity against P388 Lymphocytic Leukemia measured as Survivors on day 5 at 300 mg/kg; 6/6
[14] = system: Mus musculus; assay: In vivo antitumor activity against P388 Lymphocytic Leukemia in mice at 37.50 mg/kg expressed as T/C value; conditions: dose 37.5 mg/kg
[15] = system: Mus musculus; assay: In vivo antitumor activity against P388 Lymphocytic Leukemia in mice at 400 mg/kg w.r.t. compound 6 expressed as T/C value
[16] = system: Mus musculus; assay: In vivo antitumor activity against P388 Lymphocytic Leukemia measured as Survivors on day 5 at 75 mg/kg; 6/6
[17] = system: Mus musculus; assay: In vivo antitumor activity against P388 Lymphocytic Leukemia in mice at 150 mg/kg expressed as T/C value
[18] = system: Mus musculus; assay: In vivo antitumor activity against P388 Lymphocytic Leukemia in mice at 1600 mg/kg w.r.t. compound 6 expressed as T/C value; Toxic
[19] = system: Mus musculus; assay: In vivo antitumor activity against P388 Lymphocytic Leukemia in mice at 300 mg/kg expressed as T/C value
[20] = system: Mus musculus; assay: In vivo antitumor activity against P388 Lymphocytic Leukemia in mice at 200 mg/kg w.r.t. compound 6 expressed as T/C value
[21] = system: Mus musculus; assay: In vivo antitumor activity against P388 Lymphocytic Leukemia measured as Survivors on day 5 at 37.5 mg/kg; 6/6
[22] = system: Mus musculus; assay: In vivo antitumor activity against P388 Lymphocytic Leukemia measured as Survivors on day 5 at 400 mg/kg, w.r.t. compound 6; 6/6
[23] = system: Mus musculus; assay: In vivo antitumor activity against P388 Lymphocytic Leukemia in mice at 75 mg/kg expressed as T/C value
[24] = system: Mus musculus; assay: (§1) Weight difference when tested in vivo for antitumor activity against P388 Lymphocytic Leukemia w.r.t. compound 6
[25] = system: P388; assay: Weight difference when tested in vivo for antitumor activity against P388 Lymphocytic Leukemia; weight difference expressed as (T-C)
[26] = system: Mus musculus; assay: as §1; remark: listed apart in the source
[27] = system: Mus musculus; assay: In vivo antitumor activity against P388 Lymphocytic Leukemia measured as Survivors on day 5 at 19.5 mg/kg; 6/6
[28] = system: Mus musculus; assay: In vivo antitumor activity against P388 Lymphocytic Leukemia in mice at 39 mg/kg expressed as T/C value
[29] = system: Mus musculus; assay: In vivo antitumor activity against P388 Lymphocytic Leukemia measured as Survivors on day 5 at 78 mg/kg; 6/6
[30] = system: Mus musculus; assay: In vivo antitumor activity against P388 Lymphocytic Leukemia measured as Survivors on day 5 at 9.75 mg/kg; 6/6
[31] = system: Mus musculus; assay: In vivo antitumor activity against P388 Lymphocytic Leukemia in mice at 19.5 mg/kg expressed as T/C value
[32] = system: Mus musculus; assay: In vivo antitumor activity against P388 Lymphocytic Leukemia measured as Survivors on day 5 at 39 mg/kg; 5/6
[33] = system: Mus musculus; assay: In vivo antitumor activity against P388 Lymphocytic Leukemia in mice at 78 mg/kg expressed as T/C value
[34] = system: Mus musculus; assay: In vivo antitumor activity against P388 Lymphocytic Leukemia in mice at 9.5 mg/kg expressed as T/C value
[35] = system: Mus musculus; assay: In vivo antitumor activity against P388 Lymphocytic Leukemia measured as Survivors on day 5 at 25.5 mg/kg; 6/6
[36] = system: Mus musculus; assay: In vivo antitumor activity against P388 Lymphocytic Leukemia measured as Survivors on day 5 at 102 mg/kg; 5/5
[37] = system: Mus musculus; assay: In vivo antitumor activity against P388 Lymphocytic Leukemia measured as Survivors on day 5 at 12.75 mg/kg; 5/6
[38] = system: Mus musculus; assay: In vivo antitumor activity against P388 Lymphocytic Leukemia in mice at 102 mg/kg expressed as T/C value
[39] = system: Mus musculus; assay: In vivo antitumor activity against P388 Lymphocytic Leukemia in mice at 12.75 mg/kg expressed as T/C value
[40] = system: Mus musculus; assay: In vivo antitumor activity against P388 Lymphocytic Leukemia in mice at 25.5 mg/kg expressed as T/C value
[41] = system: Mus musculus; assay: In vivo antitumor activity against P388 Lymphocytic Leukemia measured as Survivors on day 5 at 51 mg/kg; 6/6
[42] = system: Mus musculus; assay: In vivo antitumor activity against P388 Lymphocytic Leukemia in mice at 51 mg/kg expressed as T/C value

## CC[C@](O)(C(=O)OCC1=CC[N+]2([O-])CC[C@H](O)[C@@H]12)c1ccccc1 (some centres undefined)
[1]
  Survivors: 6
[2]
  Survivors: 6
[3]
  T/C: 117%
[4]
  Survivors: 6
[5]
  T/C: 106%
[6]
  T/C: 106%
[7]
  Survivors: 5
[8]
  T/C: 126%
[9]
  IC50: 44 µg/mL (≈ 132 µM)

## CCC(O)(C(=O)OCC1=CC[N+]2([O-])CCC(O)C12)c1ccccc1 (centres undefined)
[10]
  Survivors: 6
[11]
  Survivors: 6
[12]
  Survivors: 5
[13]
  Survivors: 6
[14]
  T/C: 146%
[15]
  T/C: 146%
[16]
  Survivors: 6
[17]
  T/C: 157%
[18]
  T/C: Toxic
[19]
  T/C: 166%
[20]
  T/C: 140%
[21]
  Survivors: 6
[22]
  Survivors: 6
[23]
  T/C: 149%
[24]
  Weight change: -0.7
[25]
  Weight difference: -1.7 [middle of 4 runs]
[26]
  Weight change: -2.9 and -1.7

## CC[C@@](O)(C(=O)OCC1=CC[N+]2([O-])CC[C@H](O)[C@@H]12)c1ccccc1 (some centres undefined)
[27]
  Survivors: 6
[28]
  T/C: 100%
[29]
  Survivors: 6
[30]
  Survivors: 6
[31]
  T/C: 106%
[32]
  Survivors: 5
[33]
  T/C: 103%
[34]
  T/C: 106%
[9]
  IC50: 15 µg/mL (≈ 45 µM)

## CC[C@@](O)(C(=O)O[C@H]1CC[N+]2([O-])CC=C(CO)[C@H]12)c1ccccc1 (some centres undefined)
[35]
  Survivors: 6
[36]
  Survivors: 5
[37]
  Survivors: 5
[38]
  T/C: 97%
[39]
  T/C: 95%
[40]
  T/C: 100%
[41]
  Survivors: 6
[42]
  T/C: 103%
[9]
  IC50: 32 µg/mL (≈ 96 µM)
